Measured values as given in PubChem BioAssay AID1529 (NMMLSC, 2009).
Only a part is listed here, and it is no random draw. The source made the active and inactive calls.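 Rule for the calls: active = binding response more than 3 SD above or below the average of its plate-row segment, actives on both sides; inconclusive = wells at one plate position flagged as instrument error; inactive = the rest.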

By UniProt entry, the sequences of proteins in these tests, tags left out.
UniProt Q99759, whole entry: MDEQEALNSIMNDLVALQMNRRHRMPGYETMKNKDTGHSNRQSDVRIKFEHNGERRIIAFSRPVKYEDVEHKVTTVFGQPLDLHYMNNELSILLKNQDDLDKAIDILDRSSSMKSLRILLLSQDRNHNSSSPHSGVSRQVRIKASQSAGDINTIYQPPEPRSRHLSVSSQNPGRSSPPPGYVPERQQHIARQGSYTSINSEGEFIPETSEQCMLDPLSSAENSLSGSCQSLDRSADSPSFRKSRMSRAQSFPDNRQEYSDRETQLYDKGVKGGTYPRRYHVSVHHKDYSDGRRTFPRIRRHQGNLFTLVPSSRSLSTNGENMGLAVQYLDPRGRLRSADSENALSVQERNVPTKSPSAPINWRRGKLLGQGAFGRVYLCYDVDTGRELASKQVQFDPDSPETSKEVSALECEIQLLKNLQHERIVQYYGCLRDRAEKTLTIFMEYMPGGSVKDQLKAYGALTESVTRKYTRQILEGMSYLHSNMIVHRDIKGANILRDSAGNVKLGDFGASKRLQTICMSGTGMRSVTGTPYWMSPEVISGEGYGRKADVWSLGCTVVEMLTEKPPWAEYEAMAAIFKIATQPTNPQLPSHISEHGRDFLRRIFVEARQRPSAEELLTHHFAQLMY

molecular target: Mitogen-activated protein kinase kinase kinase 3 (Homo sapiens) (UniProt Q99759); experiment: compounds raising or lowering MEK5 association with MEKK3 PB1 – biochemical, wildtype MEKK3, multiplex bead flow cytometry, Alexa488-MEK5, primary screen (AID 1529); details: bead-based flow cytometry, Alexa488-MEK5 binding to MEKK3; at 10 µM; actives lie on both sides; 0 = blocked by unlabeled MEK5, 100 = vehicle;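 note: Alexa488 bead fluorescence after subtracting the streptavidin-only scavenger bead signal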

Structure (SMILES) | binding response (% of control)
O=[N+]([O-])c1cc([N+](=O)[O-])c(Nc2ccccn2)c([N+](=O)[O-])c1 | inactive: 101%
